Test results reported in ChEMBL document CHEMBL2163293, “Rational approaches to improving selectivity in drug design” (J Med Chem, 2012).

Biological target: Protease (Human immunodeficiency virus 1, UniProt Q9YQ12)
Assay: Binding affinity to wild type HIV1 protease

Ki: 0.65 nM
SMILES: CC(C)(C)NC(=O)[C@@H]1C[C@@H]2CCCC[C@@H]2CN1C[C@@H](O)[C@H](Cc1ccccc1)NC(=O)[C@H](CC(N)=O)NC(=O)c1ccc2ccccc2n1 [SAQUINAVIR]
